Species on record: Homo sapiens
Experiment: Protein binding in human plasma
Conditions: read-out: PPB

fraction unbound: < 0.001
SMILES: O=C(O)COc1ccc(Cl)cc1C1CCCCCC1
